# Assay results taken from patent US20090053213A1 (MorphoSys, published 2009).
# Chains of the proteins cited; added tags and fusions are not shown. Residues count along the entry.
# UniProt P04141, 18-144: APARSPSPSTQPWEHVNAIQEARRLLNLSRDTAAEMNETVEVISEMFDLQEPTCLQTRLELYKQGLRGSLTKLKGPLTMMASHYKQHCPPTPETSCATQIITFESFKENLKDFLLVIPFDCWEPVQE
# B1: MOR04357 Fab (Fab, V domains shown)
# VH: QVQLVESGGGLVQPGGSLRLSCAASGFTFSSYWMNWVRQAPGKGLEWVSGIENKYAGGATYYAASVKGRFTISRDNSKNTLYLQMNSLRAEDTAVYYCARGFGTDFWGQGTLVTVSS
# VL: DIELTQPPSVSVAPGQTARISCSGDSIGKKYAYWYQQKPGQAPVLVIYKKRPSGIPERFSGSNSGNTATLTISGTQAEDEADYYCSAWGDKGMVFGGGTKLTVLG
# notes: X-cloned Fab (VH of MOR04252 x VL of MOR04302) with FLAG and 6xHis tags; also called Fab MOR04357
# B2: MOR04357 IgG1 (antibody, V domains shown)
# VH: B1 VH
# VL: B1 VL
# notes: expressed in HKB11 cells; also called IgG1 MOR04357
# Tests used:
# human GM-CSF [1] = target: T1, human GM-CSF (human, UniProt P04141 18-144); test: cell-based or functional assay
# human GM-CSF [2] = target: T1, human GM-CSF; test: cell-based or functional assay; remark: listed apart in the source
# human GM-CSF [3] = target: T1, human GM-CSF; test: solution equilibrium titration (SET, ECL/BioVeris), Fab with human GM-CSF (Leucomax) in solution
# human GM-CSF [4] = target: T1, human GM-CSF; test: SPR (Biacore), Fab over immobilized recombinant human GM-CSF (Peprotech), F1 chip; affinity estimated from off-rates
# human GM-CSF [5] = target: T1, human GM-CSF; test: FACS receptor inhibition assay: inhibition of binding of 0.5 µg/ml biotinylated GM-CSF to GM-CSF receptor alpha on CHO-GMRa#11 cells
# human GM-CSF [6] = target: T1, human GM-CSF; test: FACS receptor inhibition assay: antibody pre-incubated with 0.5 µg/ml biotinylated GM-CSF, binding to GM-CSF receptor alpha on CHO-GMRa#11 cells
# human GM-CSF [7] = target: T1, human GM-CSF; test: cell-based or functional assay; remark: listed apart in the source
# human GM-CSF [8] = target: T1, human GM-CSF; test: solution equilibrium titration (SET, ECL), IgG1 with human recombinant GM-CSF in solution
Binder,fold improvement of IC50 in TF-1 proliferation assay compared to parental MOR03929 (human GM-CSF [1]),"IC50 (pM) in TF-1 proliferation assay, human GM-CSF 0.25 ng/ml (human GM-CSF [2])","IC50 x-fold improved compared to BVD2-21C11, TF-1 proliferation assay (human GM-CSF [2])","IC50 x-fold improved compared to Mab215, TF-1 proliferation assay (human GM-CSF [2])",Kd (human GM-CSF [3]),Kd (human GM-CSF [4]),% inhibition at 5 µg/ml antibody (human GM-CSF [5]),IC50 (human GM-CSF [6]),fold improvement of IC50 in TF-1 proliferation assay compared to Fab MOR03929 (human GM-CSF [1]),"IC50 (pM) in TF-1 proliferation assay, human GM-CSF (E. coli) (human GM-CSF [7])","IC50 (pM) in TF-1 proliferation assay, human GM-CSF (HEK293) (human GM-CSF [7])",Kd (human GM-CSF [8])
B1,> 2000 fold,90 pM,72.9 fold,47.9 fold,0.4 pM,7 pM,~75%,26000 pM,–,–,–,–
B2,–,–,–,–,–,–,–,–,> 2000 fold,48 pM,11 pM,1.1 pM
